From US4898975A, “Water soluble organic ammonium per halides” (Great Lakes Chemical Corporation, priority 1989, dated 1990)

Experiments:
[1] = format: physicochemical; details: closed bottle, ambient, 16060 h
[2] = format: physicochemical; details: closed bottle, 29200 h

Relative Change in % Br2 [1]: 10.9%
Relative Change in % Br2 [2]: 26.2%
Substance: Diethanolammonium Perbromide [Compound 23]

Where two headings read alike, the source gives them in different places.
